{
  "source": "paper PMC10638516",
  "about": "(Acta Pharmaceutica Sinica. B, 2023)",
  "key": {"ICR mice [1]": {"system": "ICR mice", "test": "Forced swimming test", "assay_type": "in vivo, mouse", "settings": "36b 3, 10, 30 mg/kg, DLX 15 mg/kg"}, "mice": {"system": "mice", "test": "MK-801-induced novel object recognition disruption", "settings": "36b 30 mg/kg, RPD 1 mg/kg, MK-801 0.2 mg/kg i.p."}, "ICR mice [2]": {"system": "ICR mice", "test": "MK-801-induced hyperactivity", "settings": "3 mg/kg i.p."}},
  "data": [
    {"smiles": "Cn1c2c(c3ccccc31)CN(CCCCNC(=O)c1nc3ccccc3[nH]1)CC2", "note": "[36b]", "values": [
      {"measurement": "FST latency", "setting": "ICR mice [1]", "result": "failed to prolong"},
      {"measurement": "deficit in NOR index induced by MK-801", "setting": "mice", "result": "alleviated"},
      {"measurement": "inhibition of MK-801-induced hyperactivity at 3 mg/kg", "setting": "ICR mice [2]", "result": "reduced the distance of mice movement"}
    ]}
  ]
}
